# Measured values published in ChEMBL document CHEMBL1153814, “Synthesis of 3-deoxypentacyclic triterpene derivatives as inhibitors of glycogen phosphorylase” (J Nat Prod, 2009).
# Biological target: T1, Glycogen phosphorylase, muscle form (Oryctolagus cuniculus, UniProt P00489)
# T1 sequence (P00489 whole entry): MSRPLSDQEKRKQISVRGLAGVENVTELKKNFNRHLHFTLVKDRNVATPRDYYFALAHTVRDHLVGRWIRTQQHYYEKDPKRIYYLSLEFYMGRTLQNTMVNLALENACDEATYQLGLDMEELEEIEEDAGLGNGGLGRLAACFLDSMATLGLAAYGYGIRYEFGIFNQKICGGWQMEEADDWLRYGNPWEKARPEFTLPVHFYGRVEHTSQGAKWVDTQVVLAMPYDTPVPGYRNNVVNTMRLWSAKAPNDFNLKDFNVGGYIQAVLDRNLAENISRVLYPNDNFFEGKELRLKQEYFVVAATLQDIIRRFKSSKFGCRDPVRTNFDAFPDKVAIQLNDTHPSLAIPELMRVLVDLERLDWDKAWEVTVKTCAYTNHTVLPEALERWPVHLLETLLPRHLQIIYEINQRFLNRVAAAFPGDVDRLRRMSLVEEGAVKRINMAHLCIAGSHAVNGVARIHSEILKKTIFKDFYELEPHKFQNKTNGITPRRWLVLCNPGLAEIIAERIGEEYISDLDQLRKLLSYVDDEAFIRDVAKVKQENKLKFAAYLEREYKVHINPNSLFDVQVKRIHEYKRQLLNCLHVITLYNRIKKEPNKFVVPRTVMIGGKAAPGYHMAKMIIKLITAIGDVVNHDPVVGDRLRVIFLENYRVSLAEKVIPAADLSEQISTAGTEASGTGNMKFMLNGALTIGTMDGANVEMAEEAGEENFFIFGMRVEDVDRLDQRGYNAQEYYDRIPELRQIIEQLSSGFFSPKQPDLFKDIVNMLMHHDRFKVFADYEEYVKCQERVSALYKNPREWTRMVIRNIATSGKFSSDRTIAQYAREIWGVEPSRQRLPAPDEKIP
# Assay: Inhibition of rabbit muscle glycogen phosphorylase assessed as release of phosphate from glucose-1-phosphate after 25 mins
structure (smiles),measurement,value
CC1(C)CC[C@]2(C(=O)O)CC[C@]3(C)C(=CC[C@@H]4[C@@]5(C)CC[C@H](O)C(C)(C)[C@@H]5CC[C@]43C)[C@@H]2C1 [OLEANOLIC_ACID],IC50,22.1 µM
